Assay results as given in PMC7101055 (ACS Chemical Neuroscience, 2020).

The chains behind the UniProt entries cited, without tags or fusion partners.
UniProt P61168, whole entry: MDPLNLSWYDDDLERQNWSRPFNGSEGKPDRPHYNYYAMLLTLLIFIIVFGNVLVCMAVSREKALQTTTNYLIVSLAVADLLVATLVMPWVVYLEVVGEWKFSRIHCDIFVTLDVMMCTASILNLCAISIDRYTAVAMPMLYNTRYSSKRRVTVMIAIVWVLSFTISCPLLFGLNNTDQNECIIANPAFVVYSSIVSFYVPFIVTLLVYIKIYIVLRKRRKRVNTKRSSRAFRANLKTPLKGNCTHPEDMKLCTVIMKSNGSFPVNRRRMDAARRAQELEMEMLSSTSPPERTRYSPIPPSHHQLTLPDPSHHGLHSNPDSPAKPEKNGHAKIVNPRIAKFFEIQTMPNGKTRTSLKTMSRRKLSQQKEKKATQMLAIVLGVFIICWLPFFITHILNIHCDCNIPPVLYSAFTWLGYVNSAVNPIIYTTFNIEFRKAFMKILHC

Target: D2 receptors on substantia nigra dopamine neurons (Mus musculus, UniProt P61168)
Format: cell-based
Details: CyHQ-sulpiride 5 μM, 1 s flash; quinpirole 300 nM or dopamine 1 μM

For `CCCN1CCC[C@@H]2Cc3n[nH]cc3C[C@H]21` [quinpirole], the “time constant of decay τ of D2 current after CyHQ-sulpiride photolysis” value was 635 ms.
